Experimental findings from ChEMBL document CHEMBL1255339, “Biochemical characterization of SHV-55, an extended-spectrum class A beta-lactamase from Klebsiella pneumoniae” (Antimicrob Agents Chemother, 2008) are described below.

Broadly, the kcat/Km is the turnover number divided by the Michaelis constant. In general, Km refers to the concentration of substrate that gives half-maximal velocity. Broadly, the kcat is the maximal rate divided by the concentration of active sites.

Substrate in data set [1]: CC(=O)OCC1=C(C(=O)O)N2C(=O)[C@@H](NC(=O)Cc3cccs3)[C@H]2SC1
As to the kind of experiment: Ratio of Kcat to Km for Klebsiella pneumoniae Beta-Lactamase SHV-1.

Substrate in data set [2]: CC(C)(O/N=C(\C(=O)N[C@@H]1C(=O)N2C(C(=O)[O-])=C(C[n+]3ccccc3)CS[C@H]12)c1csc(N)n1)C(=O)O
Briefly: (§1) Activity of Klebsiella pneumoniae Beta-Lactamase SHV-1.

Substrate in data set [3]: CC1(C)S[C@@H]2[C@H](NC(=O)[C@H](N)c3ccc(O)cc3)C(=O)N2[C@H]1C(=O)O
The description is as §1.

Substrate in data set [4]: CO/N=C(\C(=O)N[C@@H]1C(=O)N2C(C(=O)O)=C(COC(C)=O)CS[C@H]12)c1csc(N)n1
The description is as §1.

Substrate in data set [5]: CC(=O)OCC1=C(C(=O)O)N2C(=O)[C@@H](NC(=O)Cc3cccs3)[C@H]2SC1
Briefly: (§2) Ratio of Kcat to Km for Klebsiella pneumoniae Beta-Lactamase SHV-55.

Substrate in data set [6]: CC(C)(O/N=C(\C(=O)N[C@@H]1C(=O)N2C(C(=O)[O-])=C(C[n+]3ccccc3)CS[C@H]12)c1csc(N)n1)C(=O)O
Described as §2.

Substrate in data set [7]: CC1(C)S[C@@H]2[C@H](NC(=O)[C@H](N)c3ccc(O)cc3)C(=O)N2[C@H]1C(=O)O
Described as §2.

Substrate in data set [8]: CO/N=C(\C(=O)N[C@@H]1C(=O)N2C(C(=O)O)=C(COC(C)=O)CS[C@H]12)c1csc(N)n1
The data set is described as §2.

Substrate in data set [9]: CC(=O)OCC1=C(C(=O)O)N2C(=O)[C@@H](NC(=O)Cc3cccs3)[C@H]2SC1
Briefly: (§3) Activity of Klebsiella pneumoniae Beta-Lactamase SHV-55.

Substrate in data set [10]: CC(C)(O/N=C(\C(=O)N[C@@H]1C(=O)N2C(C(=O)[O-])=C(C[n+]3ccccc3)CS[C@H]12)c1csc(N)n1)C(=O)O
The data set is described as §3.

Substrate in data set [11]: CC1(C)S[C@@H]2[C@H](NC(=O)Cc3ccccc3)C(=O)N2[C@H]1C(=O)O
The description is as §3.

Substrate in data set [12]: CC1(C)S[C@@H]2[C@H](NC(=O)[C@H](N)c3ccc(O)cc3)C(=O)N2[C@H]1C(=O)O
Described as §3.

Substrate in data set [13]: CO/N=C(\C(=O)N[C@@H]1C(=O)N2C(C(=O)O)=C(COC(C)=O)CS[C@H]12)c1csc(N)n1
Described as §3.

Substrate in data set [14]: CO/N=C(\C(=O)N[C@@H]1C(=O)N2C(C(=O)O)=C(COC(N)=O)CS[C@H]12)c1ccco1
The data set is described as §3.

B1: Beta-lactamase SHV-1 (Klebsiella pneumoniae), P0AD64 (protein)
chain: MRYIRLCIISLLATLPLAVHASPQPLEQIKLSESQLSGRVGMIEMDLASGRTLTAWRADERFPMMSTFKVVLCGAVLARVDAGDEQLERKIHYRQQDLVDYSPVSEKHLADGMTVGELCAAAITMSDNSAANLLLATVGGPAGLTAFLRQIGDNVTRLDRWETELNEALPGDARDTTTPASMAATLRKLLTSQRLSARSQRQLLQWMVDDRVAGPLIRSVLPAGWFIADKTGAGERGARGIVALLGPNNKAERIVVIYLRDTPASMAERNQQIAGIGAALIEHWQR
As for B1, the kcat/Km in data set [1] stood at 3.2e+06 M⁻¹ s⁻¹. Moreover, the Km in data set [2] came out at 142 µM; in [4], 257 µM. Further, the results for the kcat in data set [2], in [3] and in data set [4] were less than 0.1 s⁻¹, 1040 s⁻¹ and less than 0.1 s⁻¹, respectively.

B2: Beta-lactamase SHV-55 (Klebsiella pneumoniae), Q4TVR4 (protein)
chain: MRFIRLCIISLLATLPLAVHASPQPLEQIKLSESQLSGRVGMIEMDLASGRTLTAWRADERFPMMSTFKVVLCGAVLARVDAGDEQLERKIHYRQQDLVDYSPVSEKHLADGMTVGELCAAAITMSDNSAANLLLATVGGPAGLTAFLRQIGDNVTRLDRWETELNEALPGDARDTTTPASMAATLRKLLTSQRLSARSQRQLLQWMVDDRVAGPLIRSVLPAGWFIADKTGASKRGARGIVALLGPNNKAERIVVIYLRDTPASMAERNQQIAGIGAALIEHWQR
Take B2: the kcat/Km came to 4.4e+06 M⁻¹ s⁻¹ in data set [5], 200000 M⁻¹ s⁻¹ in data set [6], 2.5e+06 M⁻¹ s⁻¹ in data set [7] and 1.1e+06 M⁻¹ s⁻¹ in data set [8]. Besides, the Michaelis-Menten constant (Km) in data set [9] is 9 µM; in data set [10], 58 µM; in [12], 10 µM; in data set [13], 21 µM; in data set [14] it was 23 µM. Moreover, the kcat in data set [9] came out at 38 s⁻¹; in data set [10] it was 9 s⁻¹; in data set [11], 23 s⁻¹; in data set [12], 23 s⁻¹; in [13] it was 24 s⁻¹.
